The numbers were not newly measured in publication PMC12080252, “Daphnia magna as an Alternative Model for (Simultaneous) Bioaccumulation and Chronic Toxicity Assessment—Controlled Exposure Study Indicates High Hazard of Heterocyclic PAHs” (Environmental Science & Technology, 2025), which cites them from elsewhere.

The subject of the data set is H. azteca. To be noted: in vivo; cited from earlier work.

Each structure is given as a SMILES string.

As to `O=C(O)Cc1ccccc1Nc1c(Cl)cccc1Cl` [diclofenac], the half-life was 16.8 min.

In general, half-life refers to how long it takes for the measured level to halve.
